In patent US20120028837A1, “RAPID SCREEN FOR REPRODUCTIVE TOXICANTS” (PRESIDENT AND FELLOWS OF HARVARD COLLEGE, priority 2010, published 2012):

Experiments:
[1] = Maximum concentration dissolvable in medium; type: physicochemical; details: plate medium
From the text: BPA bears endocrine disrupting activity in many developmental contexts including gonadal, brain and mammary gland development. BPA has affinity for multiple members of the estrogen receptors family, in particular BPA binds to the human estrogen receptor alpha (ERα) and ERβ as well as estrogen-related receptor gamma (ERR-γ) and in C. elegans with nuclear hormone receptor NHR-14 which also binds estrogen. […] Two hallmarks of exposure to BPA were examined, the decrease in the size of the proliferative zone and the condensation defects observed at diakinesis, as they are both highly penetrant and consistent phenotypes. […] Similarly to the experiments described above, the size of the mitotic zone was quantified as well as condensation defects at diakinesis.
Growing Conditions and Drug Exposures. Worms were cultured according to [23] at 20° C. on NGM plates without cholesterol. […] Exposure was carried from embryogenesis to adulthood by plating sodium hypochloride treated eggs onto drug and control plates and incubated at 20° C. for four days.

[2] = test system: C. elegans diakinesis oocytes; assay: Diakinesis oocyte analysis (chromosome condensation, SYP-1, AIR-2, pH3); details: 1 mM E2; 0.15 mM 4-HT
From the text: Proper processing of recombination events is coupled with the formation of mature bivalents during the diakinesis stage such that in mutants where recombination intermediate processing is impaired, bivalent maturation is delayed.
Associated with the changes in chromatin morphology, the SC is disassembled during late diakinesis in a tightly controlled fashion. Accordingly, SC components, such as SYP-1, are detectable on the short arms of the bivalent in the −3 oocyte but are essentially absent from the bivalents of −2 and −1 oocytes. Thus, whether a delay in chromosome remodeling could correlate with an incomplete disassembly of SC components in late diakinesis was examined.
Accurate chromosome segregation at meiosis I is characterized by the carefully orchestrated loss of cohesion between homologs coupled with retention of cohesion between sister chromatids. […] Phospho histone H3 (pH3) is a canonical substrate for the activity of AIR-2 [59] and accordingly, although it accumulates in the −3 to −1 oocytes, it is only detected on the short arms of the bivalent in the −1 oocyte in the presence of AIR-2 [56, 57].
BPA bears endocrine disrupting activity in many developmental contexts including gonadal, brain and mammary gland development. […] Similarly to the experiments described above, the size of the mitotic zone was quantified as well as condensation defects at diakinesis. […]

4-hydroxy-tamoxifen [4-HT]
maximum concentration dissolvable in medium [1]: 0.15 mM | bivalent maturation / condensation defects at diakinesis [2]: moderate condensation defects
